Measurements taken from ChEMBL document CHEMBL6153173, “Discovery, Synthesis, and Activity Evaluation of Novel Small-Molecule Inhibitors Targeting VISTA for Cancer Immunotherapy” (J Med Chem, 2025).

Legend:
HepG2 [1] = experiment: Induction of autophagy-dependent degradation of VISTA in human HepG2 cells at 5 uM measured after 24 hrs by Western blot analysis relative to control; format: cell-based
CT26 [2] = experiment: Cytotoxicity against mouse CT-26 cells assessed as cell viability at 10 uM measured after 24 hrs by CCK-8 assay; format: functional, cell-based
HepG2 [3] = experiment: Cytotoxicity against human HepG2 cells assessed as cell viability at 10 uM measured after 24 hrs by CCK-8 assay; format: functional, cell-based
CT26 [4] = experiment: Cytotoxicity against mouse CT-26 cells assessed as cell viability at 20 uM measured after 24 hrs by CCK-8 assay; format: functional, cell-based
HepG2 [5] = experiment: Cytotoxicity against human HepG2 cells assessed as cell viability at 20 uM measured after 24 hrs by CCK-8 assay; format: functional, cell-based
[6] = target: T1, V-type immunoglobulin domain-containing suppressor of T-cell activation (Homo sapiens) (UniProt Q9H7M9); experiment: Inhibition of VISTA protein in human Jurkat cells assessed as rescue of VISTA Fc protein suppressed IL-2 release by measuring increase in IL-2 by ELISA based assay; format: cell-based; settings: dose 0.3125-5 µM
T1 sequence (whole entry): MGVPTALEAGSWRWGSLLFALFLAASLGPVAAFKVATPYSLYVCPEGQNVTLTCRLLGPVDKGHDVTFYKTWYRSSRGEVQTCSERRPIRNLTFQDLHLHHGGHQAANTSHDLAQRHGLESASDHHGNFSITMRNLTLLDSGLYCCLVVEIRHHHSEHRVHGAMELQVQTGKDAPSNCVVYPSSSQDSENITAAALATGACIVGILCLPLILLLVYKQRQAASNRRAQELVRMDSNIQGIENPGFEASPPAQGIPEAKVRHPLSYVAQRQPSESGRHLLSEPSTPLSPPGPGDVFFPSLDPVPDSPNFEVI

HepG2 [7] = experiment: Induction of autophagy-dependent degradation of VISTA in human HepG2 cells measured after 24 hrs by Western blot analysis; format: cell-based; settings: dose 1.25-5 µM
CT26 [8] = experiment: Antitumor activity against mouse CT26 cells allografted in BALB/c mouse assessed as tumor volume inhibition rate at 60 mg/kg, po once daily for 14 consecutive doses; format: functional, organism-based; settings: time 14.0 day
CT26 [9] = experiment: Antitumor activity against mouse CT26 cells allografted in BALB/c mouse assessed as inhibition of tumor growth by visual examination at 30 to 120 mg/kg, po once daily for 14 consecutive doses; format: functional, organism-based; settings: dose 30-120 mg/kg, time 14.0 day
Mus musculus = experiment: Induction of antitumor immune response in BALB/c mouse allografted with mouse CT-26 cells assessed as increase in infiltration of CD8 positive cells in tumor tissue at 30 to 120 mg/kg, po once daily for 14 consecutive doses by immunohistochemical analysis; format: functional, organism-based; settings: CT26, dose 30-120 mg/kg, time 14.0 day
CT26 [10] = experiment: Antitumor activity against mouse CT26 cells allografted in BALB/c mouse assessed as tumor shrinkage at 30 to 120 mg/kg, po once daily for 14 consecutive doses by hematoxylin and eosin (H and E) staining based assay; format: functional, organism-based; settings: dose 30-120 mg/kg, time 14.0 day
CT26 [11] = experiment: Antitumor activity against mouse CT26 cells allografted in BALB/c mouse assessed as growth delay at 30 to 120 mg/kg, po once daily for 14 consecutive doses by hematoxylin and eosin (H and E) staining based assay; format: functional, organism-based; settings: dose 30-120 mg/kg, time 14.0 day

inhibition [6]	SMILES	Activity (HepG2 [1])	Activity (CT26 [2])	Activity (HepG2 [3])	Activity (CT26 [4])	Activity (HepG2 [5])	Activity (HepG2 [7])	Activity (CT26 [8])	Activity (CT26 [9])	Activity (Mus musculus)	Activity (CT26 [10])	Activity (CT26 [11])
–	Cc1c(-c2ccccc2)ccc2nc(-c3cccc(CNCCO)c3)[nH]c12	50%	–	–	–	–	–	–	–	–	–	–
Dose-dependent-effect	Cc1c(-c2ccc(F)cc2)ccc2nc(-c3cccc(CNCCN(C)C)c3)[nH]c12	77%	Active	Active	Active	Active	Dose-dependent-effect	Active	Active	Active	Active	Active

Calls of active or inactive are those of the source. The rule behind the calls is not given here.
